The values that follow come from patent US20080089927A1, “Methods for Coacervation Induced Liposomal Encapsulation and Formulations Thereof” (priority 2006, published 2008).

For this data set the following is noted: BSA dissolved in water at pH 7.0.

On to Bovine Serum Albumin [BSA], for which the “ethanol concentration above which coacervate phase forms” value was “exceeds 45 wt %”.
